Earlier results on one substance are cited in patent publication US7332523B2, “TNP-470 polymer conjugates and use thereof” (Children's Medical Center Corporation, priority 2002, dated 2008).

For the data set the following is noted: clinical pharmacokinetics; cited from earlier work.

Turning to HPMA copolymer-doxorubicin [PK1], the t1/2α was 1.8 h.
